In the test the test system is hPSC. Put plainly: Comparison of heparin, albumin and B27 on cardiac differentiation in E8 basal, RPMI and DMEM/F12 media. It is filed as cell-based, human. An excerpt:
Data shown is FACS using CTNT antibody. The batch numbers of the heparin or albumin batches used are listed.
Data shown is realtime PCR of cardiac troponin T (CTNT).
After establishing heparin as an efficient cardiac-promoting reagent, we revisited B27 and albumin's role in cardiac differentiation. Most current protocols in the literature used RPMI basal medium for cardiac differentiation, because DMEM/F12 was reported to be less efficient (Lian, et al., PNAS, 2012, supra; Burridge et al., Cell stem cell, 2012, supra).

Turning to albumin: recombinant human albumin, the cardiac differentiation result runs as follows: (E8 basal media, albumin alone) “couldn't promote cardiac differentiation”; (E8 basal media, presence of IWP2) “only a marginal improvement”; (RPMI media, with or without IWP2) “positive impact”.
